These are literature values, as cited in paper PMC5601360 (Journal of Medicinal Chemistry, 2017).

Each structure is given as a SMILES string.

This series concerns acetic acid-induced writhing in CD1 mice. The conditions noted are these: sc, writhing assay, ref 9a; cited from earlier work.

`CN(C(=O)Cc1ccc(Cl)c(Cl)c1)[C@@H]1CCCC[C@H]1N1CCCC1`: the “antinociceptive ED50 (95% CI)” value is given as 1.54 (0.74–3.20) mg/kg.
